# Source: patent US20090093476A1, “PYRROLO[1,2-A]QUINOXALINE DERIVATIVES AS ADENOSINE A3 RECEPTOR MODULATORS AND USES THEREOF” (FAUST PHARMACEUTICALS, priority 2005, published 2009)
# By UniProt entry, the sequences of proteins in these tests, tags left out.
# UniProt P0DMS8, whole entry: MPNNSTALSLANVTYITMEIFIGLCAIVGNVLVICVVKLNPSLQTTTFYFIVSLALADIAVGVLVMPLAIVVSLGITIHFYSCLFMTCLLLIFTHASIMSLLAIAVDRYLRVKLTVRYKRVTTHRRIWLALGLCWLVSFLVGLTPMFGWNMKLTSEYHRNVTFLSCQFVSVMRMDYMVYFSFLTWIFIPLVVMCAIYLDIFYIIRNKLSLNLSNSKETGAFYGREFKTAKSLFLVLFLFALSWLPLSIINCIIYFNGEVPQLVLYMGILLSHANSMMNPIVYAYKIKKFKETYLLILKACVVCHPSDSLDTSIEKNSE
# Biological target: Human A3 receptor (Homo sapiens, UniProt P0DMS8)
# Experiment: Functional assay on human A3 receptor: forskolin-stimulated cAMP in CHO cells
# Type: cell-based
# Set-up: expressed in transfected cells; host or cells: CHO cells
# Details: forskolin 10 μM, example 1 10 μM, Cl-IB-MECA 0.1 μM, Basal 0, Forskolin 100
# Protocol: CHO cells expressing the human A3 receptor were grown overnight as a monolayer in 24 well tissue culture plates (400 μl/well; 2×10^5 cells/well). cAMP generation was performed in Dulbecco's modified Eagle's medium (DMEM)/N-2-hydroxyethylpiperazin-N-2-ethansulfonic acid (HEPES) buffer (0.60 g HEPES/50 ml DMEM pH 7.4). Each well was washed twice with HEPES/DMEM buffer (250 μl), and the following added: rolipram (50 μM) and cilostamide (50 μM). This was incubated for 30 min at 37° C. followed by the introduction of the compound of example 1 (10 μM) and Cl-IB-MECA (0.1 μM) or DMEM/HEPES. After a further 10 min of incubation, forskolin was added (10 μM). After a subsequent 15 min, incubation was stopped by aspirating the assay medium and by adding 200 μl of ice-cold 0.1M HCl. The amount of cAMP was determined by competition with [3H]cAMP for protein kinase A (PKA). Briefly, the sample, approximately 1.8 nM [3H]cAMP, and 100 μl of PKA solution were incubated on ice for at least 2.5 h. The incubations were stopped by rapid dilution with 2 ml of icecold Tris HCl buffer (pH 7.4), and bound radioactive material was then recovered by filtration through Whatman GF/C filters. Filters were additionally rinsed with 2×2 ml of Tris HCl buffer, and then the radioactivity was counted in Packard Emulsifier Safe scintillation fluid (3.5 mL). All data reflect three independent experiments.
smiles,measurement,setting,value
"CNC(=O)[C@H]1O[C@@H](n2cnc3c(NCc4cccc(I)c4)nc(Cl)nc32)[C@H](O)[C@@H]1O [Example 2-Cl-IB-MECA, 2-chloro-N^6 (3-iodobenzyl)-adenosine-5′-N-methyluronamide, reference compound]",cAMP levels,n = 1,23.252
same,cAMP levels,n = 2,23.252
same,cAMP levels,n = 3,14.006
